How the values were obtained:
[1] = Stability in blood (mouse); type: in vitro ADME
[2] = Fucoidan nanoparticle formulation, drug load and particle size; settings: Table 8
[3] = Mouse pharmacokinetics, cassette dosed free drug
[4] = Stability in blood (human); type: in vitro ADME
PAMPA pH 7.4 = type: in vitro ADME; settings: for permeability (in words): text on Table 8
[5] = Metabolic rate in microsome (mouse); type: in vitro ADME; settings: for lability / metabolic rate in microsomes (in words): mouse and human microsomes
PI3Kα = PI3Kα (Homo sapiens (Human), UniProt P42336); experiment: PI3Kα kinase (biochemical) assay; settings: for IC50: read-out: PI3Kα (IC50), Table 6, proline-modified inhibitors
[6] = Metabolic rate in microsome (human); type: in vitro ADME
[7] = Table 7, mouse, cassette, 0.1 mg/kg IV, 1 mL/kg (10-in-One)

Sequences of proteins named here, by UniProt entry; tags and fusion partners are left off.
UniProt P42336, whole entry: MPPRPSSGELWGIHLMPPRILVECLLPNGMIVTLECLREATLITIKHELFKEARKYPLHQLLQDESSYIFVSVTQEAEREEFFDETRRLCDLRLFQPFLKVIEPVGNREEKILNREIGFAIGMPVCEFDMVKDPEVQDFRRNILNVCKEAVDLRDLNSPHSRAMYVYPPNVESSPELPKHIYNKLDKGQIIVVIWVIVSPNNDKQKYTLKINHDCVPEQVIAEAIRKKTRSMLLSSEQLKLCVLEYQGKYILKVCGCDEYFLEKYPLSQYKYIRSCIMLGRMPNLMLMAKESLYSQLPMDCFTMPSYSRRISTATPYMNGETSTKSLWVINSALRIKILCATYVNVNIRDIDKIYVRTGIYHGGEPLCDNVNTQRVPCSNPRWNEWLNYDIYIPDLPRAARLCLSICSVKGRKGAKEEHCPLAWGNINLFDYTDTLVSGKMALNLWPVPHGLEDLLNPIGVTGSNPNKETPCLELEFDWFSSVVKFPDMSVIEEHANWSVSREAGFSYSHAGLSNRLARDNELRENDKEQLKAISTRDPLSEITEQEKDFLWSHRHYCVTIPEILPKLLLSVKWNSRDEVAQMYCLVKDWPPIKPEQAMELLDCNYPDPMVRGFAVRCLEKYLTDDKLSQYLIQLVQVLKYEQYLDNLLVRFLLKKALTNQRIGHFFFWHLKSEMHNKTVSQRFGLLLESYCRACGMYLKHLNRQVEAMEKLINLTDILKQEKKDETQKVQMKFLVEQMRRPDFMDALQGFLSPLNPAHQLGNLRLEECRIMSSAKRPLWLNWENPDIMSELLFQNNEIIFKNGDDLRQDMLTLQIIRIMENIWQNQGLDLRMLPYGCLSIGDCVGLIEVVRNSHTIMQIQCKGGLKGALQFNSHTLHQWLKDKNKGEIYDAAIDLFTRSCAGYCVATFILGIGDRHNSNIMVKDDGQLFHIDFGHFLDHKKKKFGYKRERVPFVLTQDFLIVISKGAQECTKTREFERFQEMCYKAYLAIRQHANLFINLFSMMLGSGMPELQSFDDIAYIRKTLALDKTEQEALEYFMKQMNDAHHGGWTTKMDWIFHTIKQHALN
UniProt P27986, whole entry partner: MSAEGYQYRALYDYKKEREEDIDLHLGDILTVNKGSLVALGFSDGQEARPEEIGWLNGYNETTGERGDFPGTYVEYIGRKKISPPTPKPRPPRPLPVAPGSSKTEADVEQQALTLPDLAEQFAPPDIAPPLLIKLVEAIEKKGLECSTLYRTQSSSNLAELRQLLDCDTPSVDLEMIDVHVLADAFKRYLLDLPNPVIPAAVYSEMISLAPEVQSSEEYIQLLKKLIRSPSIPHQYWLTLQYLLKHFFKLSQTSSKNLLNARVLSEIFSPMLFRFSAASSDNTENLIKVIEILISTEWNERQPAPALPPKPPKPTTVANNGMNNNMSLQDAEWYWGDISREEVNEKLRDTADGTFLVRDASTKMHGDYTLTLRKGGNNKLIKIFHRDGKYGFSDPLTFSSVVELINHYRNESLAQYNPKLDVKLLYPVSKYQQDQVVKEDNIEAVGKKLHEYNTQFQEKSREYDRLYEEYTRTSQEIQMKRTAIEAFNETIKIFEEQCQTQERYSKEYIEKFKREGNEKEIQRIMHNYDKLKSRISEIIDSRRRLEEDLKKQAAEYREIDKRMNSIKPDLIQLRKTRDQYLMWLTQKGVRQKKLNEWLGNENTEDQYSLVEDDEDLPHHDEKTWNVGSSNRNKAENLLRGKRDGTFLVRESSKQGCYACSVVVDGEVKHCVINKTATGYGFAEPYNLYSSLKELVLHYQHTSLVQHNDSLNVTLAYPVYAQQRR

Stability in blood (mouse) [% remaining @ 2 h] [1] | Nanoparticle drug load, % [2] | compound detected at Cmax (t=5 min), IV dosing arm ([3]; mouse cassette PK, IV) | compound detected following oral administration ([3]; mouse cassette PK, oral) | Stability in blood (human) [% remaining @ 2 h] [4] | PAMPA pH 7.4 (PAMPA pH 7.4) | permeability (in words) (PAMPA pH 7.4) | lability / metabolic rate in microsomes (in words) [5] | Metabolic rate in microsome (mouse) [5] | IC50 (PI3Kα) | Metabolic rate in microsome (human) [6] | AUCiv [3, 7] | C5min [3, 7] | Cltotal [3, 7] | MRTiv [3, 7] | VDss [3, 7] | half-life relative to BYL719 and Compound (14) (in words) ([3]; mice, IV-dosed) | total clearance (in words) ([3]; mouse, cassette dosing, free drug) | PI3Kα inhibition in biochemical assay (in words) (PI3Kα) | SMILES
1.0% | 34% | no Compound (18) was detected | no Compound (18) was detected | 0.4% | 172 nm/sec | display permeability characteristics | high metabolic rate | 577 µL/min/mg | < 0.1 µM | 245 µL/min/mg |  |  |  |  |  |  |  |  | Cc1nc(NC(=O)N2C[C@H](C(=O)OCc3oc(=O)oc3C)C[C@H]2C(N)=O)sc1-c1ccnc(C(C)(C)C(F)(F)F)c1
104% | 41% |  |  | 103% | <6 nm/sec |  | very stable | -8 µL/min/mg | < 0.1 µM | 7 µL/min/mg | 9.6 ng·h/mL | 55.7 ng/mL | 10.662 L/h/kg | 11.4 min | 2.057 L/kg | shorter half-life | much higher clearance | potent | Cc1nc(NC(=O)N2C[C@H](C(=O)O)C[C@H]2C(N)=O)sc1-c1ccnc(C(C)(C)C(F)(F)F)c1

SMILES | Stability in blood (mouse) [% remaining @ 2 h] [1] | Nanoparticle drug load, % [2] | compound detected at Cmax (t=5 min), IV dosing arm ([3]; mouse cassette PK, IV) | compound detected following oral administration ([3]; mouse cassette PK, oral) | Stability in blood (human) [% remaining @ 2 h] [4] | PAMPA pH 7.4 (PAMPA pH 7.4) | permeability (in words) (PAMPA pH 7.4) | lability / metabolic rate in microsomes (in words) [5] | Metabolic rate in microsome (mouse) [5] | IC50 (PI3Kα) | Metabolic rate in microsome (human) [6] | AUCiv [3, 7] | C5min [3, 7] | Cltotal [3, 7] | MRTiv [3, 7] | VDss [3, 7] | half-life relative to BYL719 and Compound (14) (in words) ([3]; mice, IV-dosed) | total clearance (in words) ([3]; mouse, cassette dosing, free drug) | PI3Kα inhibition in biochemical assay (in words) (PI3Kα)
CCOC(=O)[C@@H]1C[C@@H](C(N)=O)N(C(=O)Nc2nc(C)c(-c3ccnc(C(C)(C)C(F)(F)F)c3)s2)C1 | 0.076% | 39% |  |  | 60% | 155 nm/sec | display permeability characteristics | more labile in mouse microsomes than in human | 104 µL/min/mg | < 0.1 µM | 18 µL/min/mg |  |  |  |  |  |  |  | 

Source: US12478616B2, “PI3K inhibitors and uses thereof” (Sloan-Kettering Institute for Cancer Research, priority 2018, dated 2025)
